Apparent affinities of Ab-14 variants for a coronavirus HR2 peptide

Reference: Engelhart et al. 2022, doi:10.1038/s41597-022-01779-4. File: FLAb, binding data.

All variants were tested on one target, the spike HR2 peptide PDVDLGDISGINAS (SARS-CoV-2).

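AAYL50 was designed without a model: most single CDR substitutions and a random sample of double and triple ones. The assay is AlphaSeq: two haploid yeast populations carry antibody and antigen on their surface. After mating in shaken culture at 30 °C for 16 h, diploids were selected and their barcode pairs sequenced. Scores were corrected for input abundance and mapped to Kd with protein pairs of known affinity run in the same pool. Mating was done three times.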

Each scFv is VH, a 15-residue (Gly4Ser)3 linker, VL, as in the parent Ab-14, and differs from it in the CDRs of the light chain only.
VH: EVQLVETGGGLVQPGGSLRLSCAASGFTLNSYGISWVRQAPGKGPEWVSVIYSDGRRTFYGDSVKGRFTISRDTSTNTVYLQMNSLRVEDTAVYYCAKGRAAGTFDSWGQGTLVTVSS
VL: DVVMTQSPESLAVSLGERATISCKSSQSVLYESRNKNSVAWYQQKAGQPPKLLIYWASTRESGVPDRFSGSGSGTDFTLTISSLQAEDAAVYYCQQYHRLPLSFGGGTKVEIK

The parent's light chain CDRs are KSSQSVLYESRNKNSVA, WASTRES, QQYHRLPLS; each variant's own CDRs replace them letter for letter.
This list gathers variants with a substitution at Y31 (VL, numbered from residue 1).
Numbers give log10(Kd / nM), so 0 is 1 nM and 3 is 1 µM. Smaller is tighter.
Replicates are averaged; those with no signal do not enter the mean.
Where no diploid with the target was found in any replicate, the entry reads "nd": below detection, most likely a poor binder, though not proof of it.
Three control strains display no target. For library AAYL50, 18% of the pairings with them gave a signal, with a median of 4.19 and one signal in twenty below 2.99, so weak values seen in few replicates may be background.

* KSSQSVLFESRNKNSVA / WASTRES / QQYHRLPLS = 0.74 (3 of 3 replicates)
* KSSQSVLHESRNKPSVA / WASTIES / QQYHRLPLS = 5.54 (1 of 3 replicates)
* KSSQSVLCESRNKNSVA / WASTMES / QQYHRLPLI = 3.29 (1 of 3 replicates)
* KSSQSVLRESRNKYSVA / WASTRES / QHYHRLPLS = 3.82 (3 of 3 replicates)
* KHSQSVLIESRNKNSVA / WAKTRES / QQYHRLPLS = 1.80 (3 of 3 replicates)
* KSSQSVKQESRNKNSVA / WASTRES / QTYHRLPLS = 2.69 (3 of 3 replicates)
* KSSQSVLCESRNKNSVA / WASTRES / SQYHRLPLS = 3.86 (3 of 3 replicates)
* KSSQSVLLESRNKNSVA / WASTRES / QHYHGLPLS = 0.43 (3 of 3 replicates)
* KSSQSVLIESRNKNSVA / WASTRGS / QQYQRLPLS = 1.34 (3 of 3 replicates)
* KSSQSVLLESRNKNSSA / WASTRES / QQYHRLELS = nd (0 of 3 replicates)
* KSSQSVLSESRNKNSVA / WASTRES / QQVHRLPYS = 1.03 (3 of 3 replicates)
* KSSQSVLTESRNKNSVA / WASLRES / QQYHRLNLS = nd (0 of 3 replicates)
* KSSQSVLQESRNKNSVA / WASTRRS / QQIHRLPLS = 2.17 (3 of 3 replicates)
* KSSQSVLWESRNKNSVA / WLLTRES / QQYHRLPLS = nd (0 of 3 replicates)
* KSSQSVLCESRNKNSVA / WASTEES / QQYHRRPLS = 3.26 (1 of 3 replicates)
* KSSQSVLNESRNKNSVA / WASLRAS / QQYHRLPLS = 1.39 (3 of 3 replicates)
* KSSQSVLVESRNKNSVA / WASTRES / QQYHRLPLS = 0.37 (3 of 3 replicates)
* KSSQSVLREKRNKNSVA / WASTRFS / QQYHRLPLS = nd (0 of 3 replicates)
* KSSQSKLIESRSKNSVA / WASTRES / QQYHRLPLS = 2.54 (3 of 3 replicates)
* KSSQSVLHESRNKNSVI / WASTRES / QQYHRLPNS = 4.34 (1 of 3 replicates)
* KSSQSVEWESRNKNSVA / WRSTRES / QQYHRLPLS = 2.36 (3 of 3 replicates)
* KSSQSVLWESRNKNSVA / WANTYES / QQYHRLPLS = 4.59 (2 of 3 replicates)
* KSSQSVLCESRNKNSVA / WAKTRES / QQIHRLPLS = nd (0 of 3 replicates)
* KSSQSVLDESRNKKSVA / WASTREL / QQYHRLPLS = 1.01 (3 of 3 replicates)
* KSSQSVLQESRNKNSVA / DASTRES / QQYHRLPLS = -0.29 (3 of 3 replicates)
* KSSQSVLCESQNKNSTA / WASTRES / QQYHRLPLS = 3.22 (2 of 3 replicates)
* KSSQSVLFESRNKNSVA / WASTRES / QQYGRLHLS = 4.06 (2 of 3 replicates)
* KSSQSVLLESRNTNSVA / WASTRES / QQYHRLPLK = nd (0 of 3 replicates)
* KSSYSVLGESRNKNSVA / WKSTRES / QQYHRLPLS = 1.53 (3 of 3 replicates)
* KSSQSVLVESRNKNSVA / WASTRES / QQYHRDPLM = 0.97 (3 of 3 replicates)
* KMSQSVLIESRNKNSVA / WASTRES / QQYHRCPLS = nd (0 of 3 replicates)
* KLSQSVLEESRNKNSVA / WASTREF / QQYHRLPLS = 0.04 (3 of 3 replicates)
* KSSQSVLEESRNKNSVA / WHSTRES / YQYHRLPLS = nd (0 of 3 replicates)
* KSSQSVLEESRNKNGVA / WASYRES / QQYHRLPLS = nd (0 of 3 replicates)
* KSSQSVLGESRNNNSVA / WASTRES / QQYHRLPLS = 1.89 (3 of 3 replicates)
* KSSQSVLIESRNKNSVA / WLSTEES / QQYHRLPLS = 3.99 (1 of 3 replicates)
* KSSQSVLWESRNKNSVA / WAHTRER / QQYHRLPLS = nd (0 of 3 replicates)
* KSSQSVLNESRNKNSVA / WASTRES / QMIHRLPLS = 1.93 (3 of 3 replicates)
* KSSQSVLQESRNKNSVD / WASGRES / QQYHRLPLS = nd (0 of 3 replicates)
* KSSQSVLVESKNKNSVA / WASTRES / QQDHRLPLS = 2.87 (3 of 3 replicates)
* KSSQSVLKESRNKNSVA / WAVQRES / QQYHRLPLS = 3.12 (3 of 3 replicates)
* KSSQSVLAESRNKNSVP / WASTRES / QQYHRLPLS = nd (0 of 3 replicates)
* NSSQSVLIESRNKNSVA / WASTRES / QQYHRLPLE = 2.08 (3 of 3 replicates)
* KSSQSVLTESRNKNSVF / WASTRES / QQYHRLPLS = nd (0 of 3 replicates)
* KSSQSVLQESRNKNSVA / WASTTES / QQYHRLPHS = nd (0 of 3 replicates)
* KSSQSVLSESRRKNSVA / WASTRES / KQYHRLPLS = nd (0 of 3 replicates)
* KSSQSRLHESRNKNLVA / WASTRES / QQYHRLPLS = nd (0 of 3 replicates)
* KYSQSVLGESVNKNSVA / WASTRES / QQYHRLPLS = -0.15 (3 of 3 replicates)
* KDSQSVLEESRNKNSVA / WASTRES / QQYHRLPLS = 0.65 (3 of 3 replicates)
* FSSQSVLRESRNKNSVA / WASTRES / QQYHRLPLS = 2.50 (3 of 3 replicates)
* KSSQSVLPESRNKNSGA / WASTRES / QQYYRLPLS = 4.04 (2 of 3 replicates)
* KSSQSVLVESRNKNSVA / WASTTES / GQYHRLPLS = 2.89 (3 of 3 replicates)
* KSSQSVLRESRNKNGVA / WASTRES / QQYHRPPLS = nd (0 of 3 replicates)
* KSLQSVLFESRNKNSVA / WASTRES / QQYHRDPLS = 6.29 (1 of 3 replicates)
* KSSQSVLINSRNKNSVA / WASTRES / QQYHRLPQS = 2.99 (2 of 3 replicates)
* KSSQSVLDESRNCNSVA / WASTVES / QQYHRLPLS = 0.97 (3 of 3 replicates)
* KSDQSVLDESRNKNSVA / WASTRES / QQYHRLPLS = 0.53 (3 of 3 replicates)

For reference, 3 entries of the list once more:

{"CDR-L1": "KSSQSVLNESRNKNSVA", "CDR-L2": "WASLRAS", "CDR-L3": "QQYHRLPLS", "log10 Kd (nM), mean": "1.39", "seen in": "3/3"}
{"CDR-L1": "KSSQSVLCESRNKNSVA", "CDR-L2": "WAKTRES", "CDR-L3": "QQIHRLPLS", "log10 Kd (nM), mean": "nd", "seen in": "0/3"}
{"CDR-L1": "KSLQSVLFESRNKNSVA", "CDR-L2": "WASTRES", "CDR-L3": "QQYHRDPLS", "log10 Kd (nM), mean": "6.29", "seen in": "1/3"}